pKi: −log10 of the molar value.
Target: T1, human 5-HT6 receptor (Homo sapiens, UniProt P50406)
T1 construct: host or cells: CHO-K1 cells, stably transfected; membranes prepared in house
Assay: Human 5-HT6 Receptor Binding Assay ([3H]LSD displacement, scintillation beads)
Conditions: read-out: h5-HT6 (Ki)
Protocol: Human 5-HT6 Receptor Binding Assay
Membranes were prepared from CHO—K1 cells stably transfected with the human 5-HT6 receptor (Euroscreen; ES-316-C). The cells were grown in Gibco Advanced DMEM-F12 (Cat#12634010) containing 2% dialyzed FBS (Hyclone Cat#SH30079.03). The cells were harvested in phosphate buffered saline (PBS) containing 0.1 mM EDTA and pelleted by centrifugation (1000×g), the supernatant was discarded and the pellets were stored at −80° C. prior to membrane preparation. Membranes were prepared as previously described (J Bio Chem. 1992, 267 (14) 9844-51). […] The membranes were centrifuged at 40,000×g for 30 min at 4° C. and the pellets were resuspended in membrane buffer containing 250 mM sucrose, and protein concentration was determined using the Coomassie Plus kit (Pierce Biotechnology, Rockford, Ill.).
Membranes prepared from cells expressing recombinant human 5-HT6 receptor (h5-HT6) were resuspended in assay buffer containing 50 mM Tris HCl, (pH7.4), 4 mM CaCl2, 10 μg/mL saponin, and 0.1% (w/v) ascorbic acid. […] Plates were read using the Microbeta Trilux 1450 LSC and luminescence counter. Data were analyzed by nonlinear […] using the dose-response equation (variable slope) to calculate IC50 in XLfit4 (ID Business Solutions Inc.): y=(Bottom+((Top−Bottom)/(1+((IC50/x)^Hill slope)))) […]

Chains of the proteins cited; added tags and fusions are not shown.
UniProt P50406, whole entry: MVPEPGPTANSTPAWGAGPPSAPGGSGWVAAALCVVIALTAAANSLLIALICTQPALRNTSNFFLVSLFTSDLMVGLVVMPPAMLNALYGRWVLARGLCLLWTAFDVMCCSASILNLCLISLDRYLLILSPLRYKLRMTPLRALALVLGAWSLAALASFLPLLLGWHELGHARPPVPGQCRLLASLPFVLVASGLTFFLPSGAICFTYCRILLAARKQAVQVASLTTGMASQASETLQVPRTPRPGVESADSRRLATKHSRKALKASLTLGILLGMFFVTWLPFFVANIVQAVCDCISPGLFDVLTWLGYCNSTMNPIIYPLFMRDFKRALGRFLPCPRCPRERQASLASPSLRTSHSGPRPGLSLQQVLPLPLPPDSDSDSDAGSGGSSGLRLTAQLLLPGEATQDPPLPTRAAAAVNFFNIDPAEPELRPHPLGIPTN

Substance: 7-[(2-fluoropyridin-3-yl)sulfinyl]-4-1,2,3,4-tetrahydro[1]benzofuro[2,3-c]pyridine [Example 433]
- pKi: > 6.30
